Results on one compound are retold here after PubChem BioAssay AID1259310 (The Scripps Research Institute Molecular Screening Center, 2017).

Protein sequences, listed by entry. Tags and fused reporters are not part of them. Lines headed by an entry give the natural chain unless they say otherwise; changes in a name come on top.
UniProt Q969H0, whole entry, stated change not applied: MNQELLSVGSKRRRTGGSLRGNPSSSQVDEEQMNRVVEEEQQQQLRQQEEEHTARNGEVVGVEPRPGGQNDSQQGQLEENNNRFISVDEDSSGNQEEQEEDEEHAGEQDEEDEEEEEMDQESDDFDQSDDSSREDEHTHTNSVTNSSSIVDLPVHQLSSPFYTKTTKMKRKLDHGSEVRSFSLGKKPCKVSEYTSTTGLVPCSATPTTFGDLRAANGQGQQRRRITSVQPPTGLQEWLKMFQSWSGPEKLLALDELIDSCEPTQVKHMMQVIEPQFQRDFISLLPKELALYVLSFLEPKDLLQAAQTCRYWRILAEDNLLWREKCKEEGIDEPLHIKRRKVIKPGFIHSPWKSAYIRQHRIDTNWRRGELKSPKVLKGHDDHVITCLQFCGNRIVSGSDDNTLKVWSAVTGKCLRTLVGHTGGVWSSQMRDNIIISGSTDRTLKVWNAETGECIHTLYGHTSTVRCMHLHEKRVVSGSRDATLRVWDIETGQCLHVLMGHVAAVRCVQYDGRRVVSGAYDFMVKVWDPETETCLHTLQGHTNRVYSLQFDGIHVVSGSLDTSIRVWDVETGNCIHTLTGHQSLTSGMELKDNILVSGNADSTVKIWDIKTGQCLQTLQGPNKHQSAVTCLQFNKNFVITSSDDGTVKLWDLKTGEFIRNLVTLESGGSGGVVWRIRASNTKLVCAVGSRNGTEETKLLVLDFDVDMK

Each structure is given as a SMILES string. This is a selection; strong and weak results do not stand in their true shares. The source made the active and inactive calls. No stated cut-off is given here; in the data, active means normalized activity above about 1.9%; inactive means the rest.

In the assay the target is F-box/WD repeat-containing protein 7 (Homo sapiens) (UniProt Q969H0). In words: FBW7 E3 ligase activators, primary screen, biochemical, AlphaScreen, human (AID 1259310).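 Further: purified mutant Fbw7 with reduced substrate affinity.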 The settings on record: AlphaScreen FBW7–phospho-cyclin E peptide binding, activator screen; at 26.1 µM; active compounds read high. (In general: Alpha assays give light when donor and acceptor beads are brought close together.)
For `CN(CCCl)CCCl`, the normalized activity (activation) is inactive: 0.03%.
